Measured values: ChEMBL document CHEMBL1955771, “VX-322: a novel dual receptor tyrosine kinase inhibitor for the treatment of acute myelogenous leukemia” (J Med Chem, 2012)

Species on record: Homo sapiens
Test: Selectivity ratio of IC50 for human recombinant c-Kit to IC50 for wild type human recombinant FLT3

Ratio IC50: 64
Structure (SMILES): COc1ccc(N2CCOCC2)cc1Nc1nc(N)n(-c2ccccn2)n1
